The values below are quoted from earlier work in patent US20170210810A1, “BIOMARKER PROFILES FOR PREDICTING OUTCOMES OF CANCER THERAPY WITH ERBB3 INHIBITORS AND/OR CHEMOTHERAPIES” (Merrimack Pharmaceuticals, Inc., priority 2013, published 2017).

The subject of the series is tumors that express EGFR. Particulars: patients whose tumors express EGFR; monotherapy; cited from earlier work.

Turning to “cetuximab: monoclonal antibody that targets the epidermal growth factor receptor (EGFR)”, the patients who respond was 15-20%.
